Experimental data from PubChem BioAssay AID602277 (University of Pittsburgh Molecular Library Screening Center, 2012).
Only a part is listed here, and it is no random draw. Some tests of the compounds listed are not included; inactive here does not mean inactive elsewhere. Activity calls are given as the source filed them.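 Rule for the calls: active = inhibition of the reporter signal at or above 50%; inactive = inhibition below 50%.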

Assay: inhibitors of poly I:C-induced TLR3 signaling, primary screen, cell-based, poly I:C stimulus, luciferase, 10K MLSCN set (AID 602277)
Conditions: HEK293-TLR3 RL24 IRF3 luciferase reporter, at 10 µM, stronger effect = higher value

Row | Compound | inhibition
1 | O=C(OC1CN2CCC1CC2)C(CO)(c1ccccc1)c1ccccc1 (stereo unspecified) | inactive: 17.9%
